## Antibody variant affinities, Ab-14 heavy chain, assay B

Values reported by Li et al. 2023, doi:10.1038/s41467-023-39022-2 (FLAb copy).

All variants were tested on one target, the spike HR2 peptide PDVDLGDISGINAS (SARS-CoV-2).

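The starting antibody came from a phage panning campaign against this peptide. The variants were designed computationally from a first round of random CDR variants and then made and measured. Several design methods are mixed in this list. In AlphaSeq, yeast of one mating type display the scFv and yeast of the other type display the target. Pairs that bind mate more often; barcode pairs of the diploids are counted by sequencing. Read counts were normalised to the haploid input and turned into Kd by a linear fit to BCL2-family pairs of known affinity, for each replicate. There are six technical replicates.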

Ab-14 is the parent antibody, in scFv form: VH, then the linker GGGGSGGGGSGGGGS, then VL. The light chain is unchanged in all variants.
VH: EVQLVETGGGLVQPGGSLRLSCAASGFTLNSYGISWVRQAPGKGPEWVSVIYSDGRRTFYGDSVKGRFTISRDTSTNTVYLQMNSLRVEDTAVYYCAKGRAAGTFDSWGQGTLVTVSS
VL: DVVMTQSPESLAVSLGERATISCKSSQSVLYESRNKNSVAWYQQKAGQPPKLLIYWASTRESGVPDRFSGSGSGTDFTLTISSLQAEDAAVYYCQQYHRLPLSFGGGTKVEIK

Variants are written as CDR1, CDR2 and CDR3 of the heavy chain (limits as in the source). Parent: GFTLNSYGIS, VIYSDGRRTFYGDSVK, GRAAGTFDS. Numbers give log10(Kd / nM), so 0 is 1 nM and 3 is 1 µM. Smaller is tighter. The mean shown is taken over the replicates in which the pair was detected. "not detected" means that the variant was in the library but no mating with the target was seen in any replicate; the authors take this as a sign of poor binding, and no number exists. Of ten entries with the parent sequence, four were seen in most replicates (averages 0.34 to 2.37), three in one and three in none, so single entries are noisy.

{"CDR-H1": "GFNLNEYGIS", "CDR-H2": "VIYSDGRRTAYGGSVK", "CDR-H3": "GTAAGTFDQ", "mean, log10 nM": "0.69", "seen in": "6/6", "control signals": "0/18"}
{"CDR-H1": "GFDLNEYGIS", "CDR-H2": "VIYADGRRTFYTDSVK", "CDR-H3": "GENAGTFDQ", "mean, log10 nM": "-0.38", "seen in": "6/6", "control signals": "0/18"}
{"CDR-H1": "GFTLNEYGIS", "CDR-H2": "VIYSDGRRTQYIDSVK", "CDR-H3": "GRAAGTFDS", "mean, log10 nM": "0.66", "seen in": "5/6", "control signals": "0/18"}
{"CDR-H1": "GFTLNSYSIS", "CDR-H2": "VIYSDGRRTFYGDSVK", "CDR-H3": "GQAAGTADS", "mean, log10 nM": "not detected", "seen in": "0/6", "control signals": "0/18"}
{"CDR-H1": "GFDLDEYGIS", "CDR-H2": "VIYADGMRTAYSDSVK", "CDR-H3": "GNTAGTFDT", "mean, log10 nM": "0.38", "seen in": "6/6", "control signals": "0/18"}
{"CDR-H1": "GFTLNSYGIS", "CDR-H2": "VIYSDGKRTFYSDSVK", "CDR-H3": "GHAAGTFDS", "mean, log10 nM": "0.68", "seen in": "5/6", "control signals": "0/18"}
{"CDR-H1": "GFDINEYGIS", "CDR-H2": "VIYADGNRTMYQDQVK", "CDR-H3": "GGNAGSFVI", "mean, log10 nM": "not detected", "seen in": "0/6", "control signals": "0/18"}
{"CDR-H1": "GFTLNDYGIS", "CDR-H2": "VIYSDGRRTFYKDSVK", "CDR-H3": "GRAAGTFSS", "mean, log10 nM": "2.13", "seen in": "5/6", "control signals": "0/18"}
{"CDR-H1": "GFDLNEYGIS", "CDR-H2": "VIYADGKRTAYADSVK", "CDR-H3": "GANAGTFDI", "mean, log10 nM": "-0.32", "seen in": "6/6", "control signals": "0/18"}
{"CDR-H1": "GFDLDEYGIS", "CDR-H2": "VIYADGMRTFYADSVK", "CDR-H3": "GGNAGTFDV", "mean, log10 nM": "-0.45", "seen in": "6/6", "control signals": "0/18"}
{"CDR-H1": "GFVLNEYGIS", "CDR-H2": "VIYSDGRRTFYIDSVK", "CDR-H3": "GRAAGTFDS", "mean, log10 nM": "1.55", "seen in": "6/6", "control signals": "0/18"}
{"CDR-H1": "GFDLNEYGIS", "CDR-H2": "VIYADGVRKAYADSVK", "CDR-H3": "GGNAGTFDV", "mean, log10 nM": "-0.71", "seen in": "6/6", "control signals": "0/18"}
{"CDR-H1": "GFDLDEMGIS", "CDR-H2": "VIYADGRRTAYSNAFK", "CDR-H3": "GNNVYGLMV", "mean, log10 nM": "not detected", "seen in": "0/6", "control signals": "0/18"}
{"CDR-H1": "GFDLNSYGIS", "CDR-H2": "VIYSDGRRTFYGDPVK", "CDR-H3": "GQTAGTFDA", "mean, log10 nM": "0.60", "seen in": "6/6", "control signals": "0/18"}
{"CDR-H1": "GFDLNEYGIS", "CDR-H2": "VIYADGRRTFYADSVK", "CDR-H3": "GNVAGTFDA", "mean, log10 nM": "-0.27", "seen in": "6/6", "control signals": "0/18"}
{"CDR-H1": "GFQLNSYGIS", "CDR-H2": "VIYSDGRRTFYKDSVK", "CDR-H3": "GQAAGTFDL", "mean, log10 nM": "1.29", "seen in": "2/6", "control signals": "0/18"}
{"CDR-H1": "GFELNMYGIS", "CDR-H2": "VIYSDGRRTFYADSVK", "CDR-H3": "GRVAGTFDS", "mean, log10 nM": "0.43", "seen in": "4/6", "control signals": "1/18"}
{"CDR-H1": "GLTLTSYGIS", "CDR-H2": "VIYSDGRRTFYGDSVK", "CDR-H3": "GRAAGTFDS", "mean, log10 nM": "-1.37", "seen in": "1/6", "control signals": "0/18"}
{"CDR-H1": "GFDLNEYGIS", "CDR-H2": "VIYADGRRTAYTDSVK", "CDR-H3": "GEAAGTFDV", "mean, log10 nM": "0.09", "seen in": "6/6", "control signals": "0/18"}
{"CDR-H1": "GFDLNEYGIS", "CDR-H2": "VIYADGTRTFYTDSVK", "CDR-H3": "GEVAGTFDS", "mean, log10 nM": "-0.57", "seen in": "6/6", "control signals": "0/18"}
{"CDR-H1": "GFDLNEYGIS", "CDR-H2": "VIYADGKRQAYADSVK", "CDR-H3": "GNVAGTFDI", "mean, log10 nM": "-0.17", "seen in": "6/6", "control signals": "0/18"}
{"CDR-H1": "GFDLDEYGIS", "CDR-H2": "VIYADGSRVFYADTVK", "CDR-H3": "GLLGKLVVV", "mean, log10 nM": "not detected", "seen in": "0/6", "control signals": "0/18"}
{"CDR-H1": "GFTLNDYGYS", "CDR-H2": "VIYSDGRRTQYIDRVK", "CDR-H3": "GRAAGTFDS", "mean, log10 nM": "not detected", "seen in": "0/6", "control signals": "0/18"}
{"CDR-H1": "GFTLNSYGIS", "CDR-H2": "VIYSDGRRTFYSDSVK", "CDR-H3": "GKAQGTFDA", "mean, log10 nM": "not detected", "seen in": "0/6", "control signals": "1/18"}
{"CDR-H1": "GFTLNSYGIS", "CDR-H2": "VIYSDGRRTFYADSVK", "CDR-H3": "GSAAGTFDS", "mean, log10 nM": "0.91", "seen in": "11/12", "control signals": "1/36"}
{"CDR-H1": "GFTINSYGIS", "CDR-H2": "VIQSDGRRTFYGDSVK", "CDR-H3": "GNEAQMFDS", "mean, log10 nM": "not detected", "seen in": "0/6", "control signals": "0/18"}
{"CDR-H1": "GFDLDEYGIS", "CDR-H2": "VIYADGMRTAYADDVK", "CDR-H3": "GENAGTFDQ", "mean, log10 nM": "-0.35", "seen in": "6/6", "control signals": "0/18"}
{"CDR-H1": "GFSLDEYGIS", "CDR-H2": "VIYADGQRVQYDDPFK", "CDR-H3": "GEQAGNVDV", "mean, log10 nM": "not detected", "seen in": "0/6", "control signals": "0/18"}

Top 3 of the variants detected in all replicates, tightest first:

{"CDR-H1": "GFDLNEYGIS", "CDR-H2": "VIYADGVRKAYADSVK", "CDR-H3": "GGNAGTFDV", "mean, log10 nM": "-0.71", "seen in": "6/6", "control signals": "0/18"}
{"CDR-H1": "GFDLNEYGIS", "CDR-H2": "VIYADGTRTFYTDSVK", "CDR-H3": "GEVAGTFDS", "mean, log10 nM": "-0.57", "seen in": "6/6", "control signals": "0/18"}
{"CDR-H1": "GFDLDEYGIS", "CDR-H2": "VIYADGMRTFYADSVK", "CDR-H3": "GGNAGTFDV", "mean, log10 nM": "-0.45", "seen in": "6/6", "control signals": "0/18"}

Values of this round are not directly comparable with the first-round values of the same sequences. Three control strains display no target. For all heavy chain designs, 1% of the pairings with them gave a signal, with a median of 2.08 and one signal in twenty below 0.84, so weak values seen in few replicates may be background. Also given: how often the same scFv was detected with the empty control strains. The authors averaged sequences with at least three values out of six and counted those with two or fewer as poor binders. A sequence that the file lists under several names has all its replicates pooled.